Patent EP4606801A1, “FUSED HETEROCYCLIC COMPOUND AND USE THEREOF” (Chengdu Zenitar Biomedical Technology Co., Ltd., priority 2022, dated 2024)

Key:
in vivo = details: male, Balb/c, mouse, po, 1 mg/kg
[1] = mouse, in vivo, po, 1 mg/kg

SMILES	AUC(0-t) (in vivo) [µg·h/mL]	Cmax (in vivo) [ng/mL]	half-life (in vivo) [h]	AUC(0-t) [1] [µg·h/mL]	Cmax [1] [ng/mL]	half-life [1] [h]
CCc1cc2ncc(CN3CC=C(c4ccc(C(=O)NC)nc4)CC3)cc2[nH]c1=O [Compound 1]	235	7610	19.7	–	–	–
[2H]C([2H])([2H])NC(=O)c1ccc(C2=CCN(Cc3cnc4cc(CC)c(=O)[nH]c4c3)CC2)cn1 [Compound 2, 1'-((7-ethyl-6-oxo-5,6-dihydro-1,5-naphthyridin-3-yl)methyl)-N-(methyl-d3)-1',2',3',6'-tetrahy dro-[3,4'-bipyridine]-6-carboxamide]	141	7620	14.3	–	–	–
[2H]C(c1cnc2cc(CC)c(=O)[nH]c2c1)N1CC=C(c2ccc(C(=O)NC)nc2)CC1 (stereo not drawn) [Compound 3]	–	–	–	122	7460	11.5
[2H]C([2H])([2H])C([2H])([2H])c1cc2ncc(CN3CC=C(c4ccc(C(=O)NC)nc4)CC3)cc2[nH]c1=O [Compound 6, 1'-((7-(ethyl-d5)-6-oxo-5,6-dihydro-1,5-naphthyridin-3-yl)methyl)-N-methyl-1',2',3',6'-tetrahy dro-[3,4'-bipyridine]-6-carboxamide]	188	8210	16.2	–	–	–
[2H]C([2H])([2H])NC(=O)c1ccc(C2=CCN(Cc3cnc4cc(C([2H])([2H])C([2H])([2H])[2H])c(=O)[nH]c4c3)CC2)cn1 [Compound 11, 1'-((7-(ethyl-d5)-6-oxo-5,6-dihydro-1,5-naphthyridin-3-yl)methyl)-N (methyl-d3)-1',2',3',6'-tet rahydro-[3,4'-bipyridine]-6-carboxamide]	91	6590	15.6	–	–	–
[2H]C([2H])(c1cnc2cc(CC)c(=O)[nH]c2c1)N1CC=C(c2ccc(C(=O)NC)nc2)CC1 [Compound 15, 1'-((7-ethyl-6-oxo-5,6-dihydro-1,5-naphthyridin-3-yl)methyl-d2)-N-methyl-1',2',3',6'-tetrahydr o-[3,4'-bipyridine]-6-carboxamide]	115	6420	14.1	–	–	–
[2H]C([2H])([2H])Cc1cc2ncc(CN3CC=C(c4ccc(C(=O)NC)nc4)CC3)cc2[nH]c1=O [Compound 16, 1'-((7-(ethyl-2,2,2-d3)-6-oxo-5,6-dihydro-1,5-naphthyridin-3-yl)methyl)-N-methyl-1',2',3',6'-t etrahydro-[3,4'-bipyridine]-6-carboxamide]	88.1	7160	8.92	–	–	–

Where two headings read alike, the source gives them in different places.
